In one test the test system is Plasmodium falciparum. The test can be described thus: Antimalarial activity against blood stage chloroquine-sensitive Plasmodium falciparum 3D7 expressing GFP infected in erythrocytes assessed as inhibition of parasite growth at 10 uM incubated for 72 hrs by flow cytometry analysis relative to control. The format is functional. The settings on record: Erythrocyte. In outline: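 Unsynchronized P. falciparum 3D7-GFP culture (0,6% hematocrit, 0,5% parasitaemia) was exposed to 10 µM compound for 72 h at 37 °C and 5% CO2. Growth was read by flow cytometry of GFP (Fl-1, 488 nm excitation), counting 20,000–40,000 erythrocytes per well.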

The subject of another test is Plasmodium berghei. Nature of the test: Antimalarial activity against Plasmodium berghei sporozoites expressing firefly luciferase infected in human Huh-7 cells assessed reduction in parasite growth at 10 uM preincubated for 1 hr followed by infection and measured after 48 hrs by luminescence analysis. It counts as functional, organism-based. The settings on record: time 49.0 hrs. The method, boiled down:
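Huh-7 hepatoma cells were grown in RPMI with 10% FCS, non-essential amino acids, glutamine, penicillin/streptomycin and 10 mM HEPES pH 7, at 37 °C and 5% CO2. Cells were seeded at 1.2×10⁴/well the day before. Compound medium was added ~1 h before infection with firefly luciferase P. berghei sporozoites freshly dissected from mosquito salivary glands, then spun at 1700 g for 5 min. Parasite load was read at 48 h by lysate luminescence after luciferin addition.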

Each structure is given as a SMILES string. The source made the active and inactive calls. No cut-off for these calls is given here.

For `C[C@H](CCC(=O)O)[C@H]1CC[C@H]2[C@@H]3CC[C@@H]4C[C@H](O)CC[C@]4(C)[C@H]3CC[C@]12C`, the inhibition result with Plasmodium falciparum was “inactive”.

Regarding `CCN(CC)CCCC(C)Nc1ccnc2cc(Cl)ccc12.C[C@H](CCC(=O)O)[C@H]1CC[C@H]2[C@@H]3[C@H](O)C[C@@H]4C[C@H](O)CC[C@]4(C)[C@H]3CC[C@]12C`, in the test with Plasmodium berghei, the result was Active.

`CCN(CC)CCCC(C)Nc1ccnc2cc(Cl)ccc12.C[C@H](CCC(=O)O)[C@H]1CC[C@H]2[C@@H]3[C@H](O)C[C@@H]4C[C@H](O)CC[C@]4(C)[C@H]3C[C@H](O)[C@]12C`: in the test on Plasmodium berghei, the outcome was Active.

As for `COc1cc(NC(C)CCCN)c2ncccc2c1.C[C@H](CCC(=O)O)[C@H]1CC[C@H]2[C@@H]3[C@H](O)C[C@@H]4C[C@H](O)CC[C@]4(C)[C@H]3CC[C@]12C`, the result with Plasmodium berghei was Active.

`CCN(CC)CCCC(C)Nc1ccnc2cc(Cl)ccc12.C[C@H](CCC(=O)NCC(=O)O)[C@H]1CC[C@H]2[C@@H]3[C@H](O)C[C@@H]4C[C@H](O)CC[C@]4(C)[C@H]3C[C@H](O)[C@]12C`: the result in the test on Plasmodium berghei was Active.

For the compound `C[C@H](CCC(=O)O)[C@H]1CC[C@H]2[C@@H]3[C@H](O)C[C@@H]4C[C@H](O)CC[C@]4(C)[C@H]3C[C@H](O)[C@]12C`, the inhibition entry in the test on Plasmodium falciparum is “inactive”.

On to `CCN(CC)CCCC(C)Nc1ccnc2cc(Cl)ccc12.C[C@H](CCC(=O)O)[C@H]1CC[C@H]2[C@@H]3CC[C@@H]4C[C@H](O)CC[C@]4(C)[C@H]3C[C@H](O)[C@]12C`, for which the outcome in the test with Plasmodium berghei was Active.

In the case of `C[C@H](CCC(=O)NCC(=O)O)[C@H]1CC[C@H]2[C@@H]3[C@H](O)C[C@@H]4C[C@H](O)CC[C@]4(C)[C@H]3C[C@H](O)[C@]12C`, the inhibition result with Plasmodium falciparum was “inactive”.

For `COc1cc(NC(C)CCCN)c2ncccc2c1.C[C@H](CCC(=O)NCC(=O)O)[C@H]1CC[C@H]2[C@@H]3[C@H](O)C[C@@H]4C[C@H](O)CC[C@]4(C)[C@H]3C[C@H](O)[C@]12C`, in the test on Plasmodium berghei, the outcome was Active.

Regarding `COc1cc(NC(C)CCCN)c2ncccc2c1.C[C@H](CCC(=O)O)[C@H]1CC[C@H]2[C@@H]3CC[C@@H]4C[C@H](O)CC[C@]4(C)[C@H]3C[C@H](O)[C@]12C`, the result with Plasmodium berghei was Active.

For `COc1cc(NC(C)CCCN)c2ncccc2c1.C[C@H](CCC(=O)O)[C@H]1CC[C@H]2[C@@H]3[C@H](O)C[C@@H]4C[C@H](O)CC[C@]4(C)[C@H]3C[C@H](O)[C@]12C`, the outcome in the test on Plasmodium berghei was Active.

Regarding `C[C@H](CCC(=O)O)[C@H]1CC[C@H]2[C@@H]3CC[C@@H]4C[C@H](O)CC[C@]4(C)[C@H]3C[C@H](O)[C@]12C`, the inhibition result with Plasmodium falciparum was “inactive”.

Source of the values: ChEMBL document CHEMBL5576157, “"Seasoning" antimalarial drugs' action: chloroquine bile salts as novel triple-stage antiplasmodial hits” (RSC Med Chem, 2024).
